The entries are a selection whose mix differs from that of the whole data set. Some tests of the compounds listed are not included; inactive here does not mean inactive elsewhere. Calls of active or inactive are those of the source. Rule as the data show it: active = growth inhibition above about 70%; inactive = the rest.
What was measured:
[1] = NCI Yeast Anticancer Drug Screen. Data for the rad50 strain (AID 155);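 also: 0% = growth of vehicle-only cultures of the same strain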; settings: S. cerevisiae rad50 strain growth inhibition; at 50.0 µM; active compounds read high
[2] = NCI Yeast Anticancer Drug Screen. Data for the mec2-1 strain (AID 157); settings: S. cerevisiae mec2-1 strain, at 50.0 µM, active compounds read high
[3] = NCI Yeast Anticancer Drug Screen. Data for the sgs1 mgt1 strain (AID 161);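 also: 0% = growth of cultures given vehicle only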; settings: S. cerevisiae sgs1 mgt1 strain, at 50.0 µM, active compounds read high
[4] = NCI Yeast Anticancer Drug Screen. Data for the cln2 rad14 strain (AID 165);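 also: 0% = growth equal to vehicle treated cultures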; settings: S. cerevisiae cln2 rad14 strain, at 50.0 µM, active compounds read high
[5] = NCI Yeast Anticancer Drug Screen. Data for the bub3 strain (AID 167); settings: S. cerevisiae bub3 mutant strain, at 50.0 µM, active compounds read high
[6] = NCI Yeast Anticancer Drug Screen. Data for the mlh1 rad18 strain (AID 175); settings: S. cerevisiae mlh1 rad18 strain growth inhibition; at 50.0 µM; active compounds read high

Measured: growth inhibition

O=C(OC1CN2CCC1CC2)C(O)(C#Cc1ccccc1)c1ccccc1 (stereo not drawn)
inactive: [1] 6.5% | [2] 12.4% | [3] 17.3% | [4] 13.1% | [5] 4.55% | [6] -4.05%

CC(C)C(O)(C(=O)OC1CCNCC1)c1ccccc1 (stereo not drawn)
inactive: [1] -7.6% | [2] 0.65% | [3] -2.05% | [4] -1% | [5] 9.25% | [6] 1.4%

CC#CC(O)(C(=O)OC1CCN(C)C1)c1ccccc1 (stereo not drawn)
inactive: [1] -10.1% | [2] -27.9% | [3] 9.25% | [4] 5.1% | [5] 7.05% | [6] -50.8%

N#CC(C#N)=Cc1cccc(Br)c1
inactive: [1] 7.3% | [2] 22.5% | [3] 18.2% | [4] 14.1% | [5] 26% | [6] 18%

CC(=O)CI
inactive: [1] 6.1% | [2] 12.8% | [3] 4.75% | [4] -14.3% | [5] -7.25% | [6] -8%

CC#CC(O)(C(=O)OC1C2CCN(CC2)C1CC)C1CCCC1 (stereo not drawn)
inactive: [1] 17.4% | [2] 29.4% | [3] 29.1% | [4] 23.9% | [5] 18.8% | [6] 36.1%

C=C(C)C(O)(C(=O)OC1CN2CCC1CC2)c1cccs1 (stereo not drawn)
inactive: [1] -46.6% | [2] -11.2% | [3] 3.9% | [4] -16.4% | [5] 11.4% | [6] -38.2%

C=C(C)C#CC(O)(C(=O)OC1CCN(C)CC1)c1ccccc1 (stereo not drawn)
inactive: [1] -14.9% | [2] -1.75% | [3] -15.6% | [4] -7.85% | [5] -4.6% | [6] -1.65%

CCCC#CC(O)(C(=O)OC1CN2CCC1CC2)C1CCCC1 (stereo not drawn)
inactive: [1] 27.1% | [2] 27.8% | [3] 33.5% | [4] 15.2% | [5] 25.1% | [6] 26.4%

O=C(OC1CN2CCC1CC2)C(O)(Cc1ccccc1)C1CC1 (stereo not drawn)
inactive: [1] 38% | [2] 31.2% | [3] 49% | [4] 32.4% | [5] 41% | [6] 40.5%

O=C(OC1CC2CCCC(C1)N2Cc1ccccc1)C(O)(c1ccccc1)c1ccccc1 (stereo not drawn)
inactive: [1] 46.2% | [2] 11.2% | [3] 49.6% | [4] 12.3% | [5] 27.9% | [6] 48.4%

CC#CC(O)(C(=O)OC1CN2CCC1CC2)C(C)C (stereo not drawn)
inactive: [1] 4.05% | [2] -0.6% | [3] 8.35% | [4] -3.05% | [5] 4.8% | [6] 6.9%

CC(C)C(O)(C(=O)O/C=C1\CC2CCN1CC2)c1ccccc1 (stereo not drawn)
inactive: [1] 23.4% | [2] 17.2% | [3] 27.9% | [4] 24% | [5] 47.4% | [6] 38.8%

CN1CCCC(OC(=O)C(O)(C#Cc2ccccc2)c2ccccc2)C1 (stereo not drawn)
inactive: [1] 7.45% | [2] 2.7% | [3] -3% | [4] 4.9% | [5] 1.9% | [6] 12.6%

O=C(OC1CCN(Cc2ccccc2)C1)C(O)(c1ccccc1)c1ccccc1 (stereo not drawn)
inactive: [1] 4.45% | [2] -14.6% | [3] -20.4% | [4] -8.8% | [5] 8.45% | [6] 5.3%

ClCCN(CCCl)CCCc1ccccc1
inactive: [1] -4.2% | [2] 21.4% | [3] 18.1% | [4] -2.35% | [5] 5.2% | [6] 42.6%

CCC#CC(O)(C(=O)OC1C2CCN(CC2)C1C)c1ccccc1 (stereo not drawn)
inactive: [1] 29.4% | [2] 52.9% | [3] -11.1% | [4] 3.95% | [5] -6.5% | [6] -31.1%

O=C(OCCC1=C2CCN(CC2)C1)C(O)(c1ccccc1)C1CCCC1 (stereo not drawn)
inactive: [1] 26.9% | [2] 11.1% | [3] 45.9% | [4] 16.5% | [5] 28.8% | [6] 28.6%

CC#CC(O)(C(=O)OC1C2CCN(CC2)C1C)C1CCCC1 (stereo not drawn)
inactive: [1] 27.2% | [2] 20.7% | [3] 32.5% | [4] 19% | [5] 25.1% | [6] 16%

CN1C2CCC1CC(OC(=O)C(O)(c1ccccc1)c1ccccc1)C2 (stereo not drawn)
inactive: [1] -5.2% | [2] 9.85% | [3] 6.5% | [4] -2.3% | [5] -11.1% | [6] -5.1%

C=C(C)C#CC(O)(C(=O)OC1CCN(C)CC1)c1cccs1 (stereo not drawn)
inactive: [1] 9.65% | [2] -8.55% | [3] -16.3% | [4] 13.4% | [5] 7.5% | [6] -15.9%

CCC1C(OC(=O)C(O)(c2ccccc2)c2ccccc2)C(C)(C)C1N1CCCCC1 (stereo not drawn)
inactive: [1] -2.65% | [2] 15.8% | [3] -11.9% | [4] 19.1% | [5] -3.15% | [6] -18.7%

C=C(C)C#CC(O)(C(=O)OC1C2CCN(CC2)C1C)C1CCCCC1 (stereo not drawn)
inactive: [1] 0.8% | [2] -4.95% | [3] -25.3% | [4] 14.8% | [5] 21.1% | [6] -1.65%

Reference: PubChem BioAssay (NCI)
